## Cyclic peptide permeability, from CycPeptMPDB

Data: CycPeptMPDB; original report Townsend et al. 2020, doi:10.26434/chemrxiv.13335941.v1.

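The data file gives no further conditions (lipid, pH, time, direction or concentration), and values from different papers need not be comparable. Other peptides of the study may be missing here. Peptides that the database sets to -10, its floor, are left out.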

PAMPA is the parallel artificial membrane permeability assay, which has no cells and reads passive diffusion. Permeability is in 10^-6 cm/s, converted from the database's log10 values; higher is more permeable.

* CC(C)C[C@@H]1C(=O)N2CCC[C@H]2C(=O)N(C)[C@H](CC(C)C)C(=O)N[C@@H](Cc2ccccc2)C(=O)N2CCC[C@@H]2C(=O)N[C@@H](C)C(=O)N(C)[C@@H](CC(C)C)C(=O)N1C: PAMPA 5.9 × 10^-6 cm/s
* CC(C)C[C@@H]1NC(=O)[C@@H](C)N(C)C(=O)[C@H]2CCCN2C(=O)[C@H](Cc2ccccc2)NC(=O)CN(Cc2ccccc2)C(=O)[C@H]2CCCN2C(=O)[C@H](CC(C)C)NC1=O: PAMPA 0.5 × 10^-6 cm/s
* CCCN1CC(=O)N[C@H](CC(C)C)C(=O)N[C@@H](CC(C)C)C(=O)N2CCC[C@H]2C(=O)N(C)[C@H](CC(C)C)C(=O)N[C@@H](Cc2ccccc2)C(=O)N2CCC[C@H]2C1=O: PAMPA 1.6 × 10^-6 cm/s
* CCCN1CC(=O)N[C@@H](CC(C)C)C(=O)N[C@H](CC(C)C)C(=O)N2CCC[C@H]2C(=O)N[C@H](CC(C)C)C(=O)N[C@@H](Cc2ccccc2)C1=O: PAMPA 1.9 × 10^-6 cm/s
* CC(C)C[C@@H]1C(=O)N(C)[C@@H](CC(C)C)C(=O)N2CCC[C@H]2C(=O)N(Cc2ccccc2)CC(=O)N[C@@H](Cc2ccccc2)C(=O)N2CCC[C@@H]2C(=O)N(C)[C@H](C)C(=O)N1C: PAMPA 2.7 × 10^-6 cm/s
* CC(C)C[C@@H]1C(=O)N2CCC[C@H]2C(=O)N(Cc2ccccc2)CC(=O)N[C@@H](Cc2ccccc2)C(=O)N2CCC[C@@H]2C(=O)N(C)[C@@H](C)C(=O)N(C)[C@H](CC(C)C)C(=O)N1C: PAMPA 1.5 × 10^-6 cm/s
* CC(C)C[C@@H]1C(=O)N[C@@H](Cc2ccccc2)C(=O)N2CCC[C@H]2C(=O)N(C)[C@H](C)C(=O)N[C@H](CC(C)C)C(=O)N(Cc2ccccc2)CC(=O)N2CCC[C@H]2C(=O)N1C: PAMPA 0.95 × 10^-6 cm/s
* CCCN1CC(=O)N(C)[C@H](CC(C)C)C(=O)N(C)[C@@H](CC(C)C)C(=O)N2CCC[C@@H]2C(=O)N(Cc2ccccc2)CC(=O)N[C@@H](Cc2ccccc2)C1=O: PAMPA 7.1 × 10^-6 cm/s
* CCCN1CC(=O)N(C)[C@H](CC(C)C)C(=O)N(Cc2ccccc2)CC(=O)N2CCC[C@H]2C(=O)N(C)[C@@H](CC(C)C)C(=O)N[C@@H](Cc2ccccc2)C(=O)N2CCC[C@@H]2C1=O: PAMPA 8.1 × 10^-6 cm/s
* CC(C)C[C@@H]1C(=O)N[C@@H](Cc2ccccc2)C(=O)N2CCC[C@H]2C(=O)N(C)[C@@H](C)C(=O)N(C)[C@@H](CC(C)C)C(=O)N(Cc2ccccc2)CC(=O)N2CCC[C@@H]2C(=O)N1C: PAMPA 3.9 × 10^-6 cm/s
* CC(C)C[C@@H]1C(=O)N[C@H](CC(C)C)C(=O)N2CCC[C@H]2C(=O)N(C)[C@@H](CC(C)C)C(=O)N[C@@H](Cc2ccccc2)C(=O)N[C@H](C)C(=O)N1C: PAMPA 4.2 × 10^-6 cm/s
* CC(C)C[C@H]1NC(=O)[C@H](CC(C)C)N(C)C(=O)[C@@H](C)NC(=O)[C@H](Cc2ccccc2)NC(=O)[C@H](CC(C)C)N(C)C(=O)[C@@H]2CCCN2C1=O: PAMPA 4.3 × 10^-6 cm/s
* CC(C)C[C@@H]1C(=O)N[C@@H](Cc2ccccc2)C(=O)N2CCC[C@H]2C(=O)N(C)[C@@H](C)C(=O)N(C)[C@H](CC(C)C)C(=O)N(Cc2ccccc2)CC(=O)N2CCC[C@@H]2C(=O)N1C: PAMPA 3.4 × 10^-6 cm/s
* CC(C)C[C@@H]1C(=O)N[C@@H](Cc2ccccc2)C(=O)N(C)[C@H](C)C(=O)N[C@H](CC(C)C)C(=O)N(Cc2ccccc2)CC(=O)N2CCC[C@@H]2C(=O)N1C: PAMPA 8.1 × 10^-6 cm/s
* CC(C)C[C@@H]1C(=O)N(Cc2ccccc2)CC(=O)N2CCC[C@@H]2C(=O)N(Cc2ccccc2)CC(=O)N[C@@H](Cc2ccccc2)C(=O)N2CCC[C@@H]2C(=O)N(C)[C@H](C)C(=O)N1C: PAMPA 0.14 × 10^-6 cm/s
* CC(C)C[C@@H]1NC(=O)[C@H]2CCCN2C(=O)[C@H](CC(C)C)NC(=O)CN(Cc2ccccc2)C(=O)[C@@H](C)NC(=O)[C@H](Cc2ccccc2)NC1=O: PAMPA 0.87 × 10^-6 cm/s
* CC(C)C[C@@H]1C(=O)N(Cc2ccccc2)CC(=O)N2CCC[C@H]2C(=O)N[C@H](CC(C)C)C(=O)N[C@@H](Cc2ccccc2)C(=O)N[C@@H](C)C(=O)N1C: PAMPA 0.4 × 10^-6 cm/s
* CC(C)C[C@H]1NC(=O)[C@@H](C)NC(=O)[C@H](Cc2ccccc2)NC(=O)CN(Cc2ccccc2)C(=O)[C@@H]2CCCN2C(=O)CN(Cc2ccccc2)C1=O: PAMPA 0.6 × 10^-6 cm/s
* CC(C)C[C@@H]1NC(=O)[C@H](C)N(C)C(=O)[C@@H]2CCCN2C(=O)[C@H](Cc2ccccc2)NC(=O)[C@@H](CC(C)C)NC(=O)[C@H]2CCCN2C(=O)[C@@H](CC(C)C)N(C)C1=O: PAMPA 1.5 × 10^-6 cm/s
* CCCN1CC(=O)N(C)[C@H](CC(C)C)C(=O)N(Cc2ccccc2)CC(=O)N2CCC[C@H]2C(=O)N(C)[C@H](CC(C)C)C(=O)N[C@@H](Cc2ccccc2)C1=O: PAMPA 9.5 × 10^-6 cm/s
* CC(C)C[C@@H]1NC(=O)[C@@H](CC(C)C)NC(=O)[C@H](C)N(C)C(=O)[C@H]2CCCN2C(=O)[C@H](Cc2ccccc2)NC(=O)CN(Cc2ccccc2)C(=O)[C@H]2CCCN2C1=O: PAMPA 3.5 × 10^-6 cm/s
* CCCN1CC(=O)N(C)[C@@H](CC(C)C)C(=O)N[C@@H](Cc2ccccc2)CC(=O)N2CCC[C@@H]2C(=O)N(C)[C@@H](CC(C)C)C(=O)N[C@@H](Cc2ccccc2)C(=O)N2CCC[C@@H]2C1=O: PAMPA 3.2 × 10^-6 cm/s
* CC(C)C[C@@H]1C(=O)N(C)[C@@H](CC(C)C)C(=O)N2CCC[C@H]2C(=O)N(C)[C@@H](CC(C)C)C(=O)N[C@@H](Cc2ccccc2)C(=O)N2CCC[C@H]2C(=O)N(C)[C@@H](C)C(=O)N1C: PAMPA 2.8 × 10^-6 cm/s
* CC(C)C[C@@H]1C(=O)N[C@@H](Cc2ccccc2)C(=O)N2CCC[C@@H]2C(=O)N[C@H](C)C(=O)N[C@H](CC(C)C)C(=O)N[C@@H](Cc2ccccc2)CC(=O)N2CCC[C@@H]2C(=O)N1C: PAMPA 0.89 × 10^-6 cm/s

The last 2 entries again:

| compound | PAMPA (10^-6 cm/s) |
|---|---|
| CC(C)C[C@@H]1C(=O)N(C)[C@@H](CC(C)C)C(=O)N2CCC[C@H]2C(=O)N(C)[C@@H](CC(C)C)C(=O)N[C@@H](Cc2ccccc2)C(=O)N2CCC[C@H]2C(=O)N(C)[C@@H](C)C(=O)N1C | 2.8 |
| CC(C)C[C@@H]1C(=O)N[C@@H](Cc2ccccc2)C(=O)N2CCC[C@@H]2C(=O)N[C@H](C)C(=O)N[C@H](CC(C)C)C(=O)N[C@@H](Cc2ccccc2)CC(=O)N2CCC[C@@H]2C(=O)N1C | 0.89 |